Among the data in patent US9073833B1, “Oxime-based compound, pharmaceutical composition containing the same and method for preparing the same” (Chang Gung University, priority 2014, dated 2015) are IC50 values, retold here.

Chains of the proteins cited; added tags and fusions are not shown. Residues count along the entry.
UniProt P08246, 30-267: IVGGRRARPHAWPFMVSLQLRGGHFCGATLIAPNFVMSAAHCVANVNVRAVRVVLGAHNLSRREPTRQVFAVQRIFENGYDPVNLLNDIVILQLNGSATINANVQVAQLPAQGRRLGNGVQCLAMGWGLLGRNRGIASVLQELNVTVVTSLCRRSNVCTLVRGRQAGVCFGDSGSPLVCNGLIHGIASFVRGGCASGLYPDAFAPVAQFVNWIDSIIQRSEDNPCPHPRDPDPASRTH

In assay [1] the target is human neutrophil elastase (Homo sapiens (Human), UniProt P08246). Put plainly: Inhibition of human neutrophil elastase activity (MeO-Suc-Ala-Ala-Pro-Val-p-nitroanilide, OD405). The note with it: mean ± SEM (n = 3), 30° C., 30 minutes. The assay is classed as biochemical.
In assay [2] the test system is human neutrophil elastase (NE) release, human neutrophils. Put plainly: Release of human neutrophil elastase from FMLP/CB-activated human neutrophils. The conditions noted are these: read-out: IC50 (release of human neutrophil elastase).

One may read the IC50 as the concentration that gives 50% inhibition. As for `CC(C)(C)C(=O)Oc1ccc(S(=O)(=O)Nc2ccccc2C(=O)NCC(=O)O)cc1` [Sivelestat, reference compound], the IC50 was determined as 65 ± 4.26 µM in assay [1] and 0.05 ± 0.001 µM in assay [2].

In assay [1], `C/C(=N\O)c1ccccc1NS(=O)(=O)c1ccc(OC(=O)C(C)(C)C)cc1` [Compound 1, (E)-4-(N-(2-(1(hydroxyimino)ethyl)phenyl)sulfamoyl)phenyl pivalate] showed an IC50 of 51.3 ± 7.88 µM.
